This passage reports Kd results from PMC6559209.

The target of this assay is lactate dehydrogenase (LDH). Put plainly: MST; 10 mM H2O2. The following applies: domain or fragment.

Substance “YlHD, hydrophilic domain of the Yarrowia lipolytica group 3 LEA protein” displayed a Kd of 1.86 µM.
